One compound from ChEMBL document CHEMBL2439948, “Discovery of DF-461, a Potent Squalene Synthase Inhibitor” (ACS Med Chem Lett, 2013) can be followed below.

Data set [1] has as its system Rattus norvegicus. As to the kind of experiment: Ratio of TAK475 ED50 to compound ED50 for inhibition of cholesterol synthesis in po dosed Wistar rat administered as single dose prior to [14C]mevalonolactone injection measured after 7 hrs by liquid scintillation counting. The data set is classed as functional.
The test system of data set [2] is Rattus norvegicus. Nature of the data set: Drug uptake in rats liver assessed per gram of tissue at 3 mg/kg, po administered as single dose measured at 1 hr.
Data set [3] deals with Rattus norvegicus. Nature of the data set: Partition co-efficient, Kp in rats liver assessed per gram of tissue at 3 mg/kg, po administered as single dose measured at 1 hr.

For `COc1cccc([C@H]2O[C@H](CC(=O)O)c3nnc(C(F)(F)F)n3-c3ccc(Cl)cc32)c1Cl`, the “Ratio ED50” value in data set [1] came out at 30. Besides, the concentration at 1 h in data set [2] was determined as 2890 ng/g. Further, the Kp at 1 h in data set [3] turned out to be 80.
